Source: PubChem
The list is not random: actives were taken first. Their share in the collection is about 1.1%.
GALK inhibitor: blocks human galactokinase activity; P51570; Purified GALK, Kinase-Glo residual ATP luminescence; Potency, µM (top dose mostly 57.5 µM), actives largely listed as inhibitors; 270,000 compounds, 0.007% hits
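Galactose (100 uM) and ATP (35 uM) were turned over by 5 nM GALK for 1 h at RT. Kinase-Glo Plus then converted the remaining ATP into a luminescent signal.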
miR-21 reporter: miR-21 reporter, rising signal; Potency, µM (top dose mostly 38.3 µM); 340,000 tested, under 10 active; HeLa miR-21 FLuc reporter, luciferase, 48 h; active = well fitted rising curve with a large enough effect; inconclusive = small, poorly fitted or top-dose-only effect; inactive = no such curve, though single readings can be large or run the other way;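 note: miR-21 action dims this reporter so a rising signal means less miR-21 action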
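Luminescence from a firefly luciferase reporter carrying a miR-21 binding site downstream, stably expressed under a CMV promoter in HeLa cells that make miR-21 endogenously, reports miRNA modulation after 48 h compound exposure up to approximately 40uM final.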
TrxR1 substrate: substrates of rat thioredoxin reductase 1; O89049; purified TrxR1 substrate turnover, NADPH consumption readout; Potency, µM (doses to about 114 µM); 390,000 compounds, 0.01% hits; AID 588456; note: nearly all actives have a fitted effect of over 50% in size
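Rat TrxR1, dispensed at 90 nM, was prereduced with 400 uM NADPH (final) for 5 min at ~22 deg C, then incubated with compound 15 min before 400 uM selenite. A first-read NADPH fluorescence drop versus no-compound background flagged substrates.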
TrxR1 inh: blocks rat thioredoxin reductase 1; O89049; recombinant rTrxR1, NADPH fluorescence consumption, selenite substrate; Potency, µM (series often up to 114 µM), usual class: inhibitors; 390,000 compounds, 1% hits; note: nearly all actives have a fitted effect of over 65% in size
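Rat TrxR1 (90 nM in the dispensed reagent) was pre-reduced with 400 uM NADPH for 5 min at room temperature, then incubated with compound for 15 min. After 400 uM selenite was added, NADPH fluorescence (Ex 340/Em 450 nm) was followed for 8 min.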
PINK1 modulator: PINK1 expression modulation; PINK1 immunofluorescence, high-content cytometry, 24 h; Potency, µM (doses to about 76.6 µM), hits mostly activators; 410,000 compounds, 0.2% hits; active = well fitted activation curve with a large enough effect; inconclusive = small, poorly fitted or top-dose-only effect; cell line not stated here; note: nearly all actives have a fitted effect of over 65% in size
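Cells are seeded, rested 12 hours, then given compound at five concentrations or DMSO for 24 hours. After fixation, blocking and antibody staining, PINK1 amount and mitochondrial localization are scored; CCCP serves as control.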
Numbers stand for hits; – = inactive; ? = inconclusive; · = no result. Unless noted, calls come from the whole dose curve; as a rule, active = well fitted curve in the direction sought with a large enough effect; inconclusive = small, poorly fitted or top-dose-only effect, or another doubt; inactive = no such curve, though single readings can be large; an effect the other way counts as inactive or inconclusive.

SMILES	GALK inhibitor	miR-21 reporter	TrxR1 substrate	TrxR1 inh	PINK1 modulator
Cc1nc2ccccc2nc1CN1CCOc2ccc(C(C)(O)COc3ccccc3)cc2C1 (stereo not drawn)	·	·	·	·	–
CC(C)CSC1=NSC2=NC(=O)/C(=C\c3cccs3)C(=N)N12	·	–	–	–	45µM
CCCC(O)(CCC)C(=O)NN(C(=O)CCl)c1ccccc1	–	–	–	11µM	–
CC1CN(Cc2cccn2-c2cccnc2)Cc2cc(Cl)ccc2O1 (stereo not drawn)	·	·	·	·	–
CC(=O)Nc1cc(O)c2nonc2c1O	·	·	3.2µM	5.6µM	–
Cc1cnc(SCc2ccccn2)nc1C1CCCN(C(=O)c2noc3c2CCCC3)C1 (stereo not drawn)	·	·	·	·	–
Cc1occc1-c1nnc(SCC(=O)Nc2nc(C(C)(C)C)cs2)o1	–	–	–	–	14µM
Cc1cc(C(=O)O)ccc1N/C=C1\CCCC(C)C1=O (stereo not drawn)	–	–	–	–	–
CC1CCC/C(=C\Nc2ccc(O)cc2)C1=O (stereo not drawn)	–	–	–	20µM	–
CN1C(=O)/C(=N\OC(=O)c2ccccc2Cl)c2ccccc21	–	–	–	10µM	–
O=C(/C=C/c1ccco1)NC(=S)Nc1ccc(N2CCCC2)cc1	–	–	–	50µM	–
O=C(/C=C/c1ccco1)NC(=S)Nc1ccc(C(=O)O)cc1	–	–	–	40µM	–
CC(=O)NC(=S)Nc1ccc(NC(=S)NC(=O)/C=C/c2ccco2)cc1	·	–	–	–	–
Cc1c(Cl)cccc1NC(=O)CSc1sc2c(O)cc(=O)[nH]c2c1C#N	–	–	–	–	–
N#Cc1c(SCC(=O)Nc2ccc(Cl)cc2Cl)sc2c(O)cc(=O)[nH]c12	–	–	–	–	32µM
C/C1=C/CC(C)(C)/C=C/C/C(C)=C/CC1	·	·	·	·	–
COc1ccc(N2C(=O)CC(Sc3nnc(-c4ccccc4F)n3C)C2=O)cc1 (stereo not drawn)	–	–	–	32µM	–
C=CCNc1nnc(SC2CC(=O)N(c3ccc(OC)cc3)C2=O)s1 (stereo not drawn)	–	?	–	4µM	–
COc1ccc(N2C(=O)CC(Sc3nc4ccccc4s3)C2=O)cc1 (stereo not drawn)	–	–	–	–	–
Cc1cc(N)c2ccccc2[n+]1CCCCCCCCCC[n+]1c(C)cc(N)c2ccccc21	·	·	–	–	·
O=C(CC1Sc2ncnn2C1=O)Nc1ccc(Br)cc1 (stereo not drawn)	–	–	–	1.4µM	–
O=C(CC1SC2=NCCN2C1=O)Nc1ccc(Br)cc1 (stereo not drawn)	–	–	–	–	–
O=C(Nc1ccc(C(=O)O)cc1)Nc1ccc([N+](=O)[O-])cc1	–	–	–	–	–
COC(=O)c1ccc(NC(=O)Nc2ccc([N+](=O)[O-])cc2)cc1	–	–	–	–	35µM
COc1ccccc1-c1ccnc(-n2ncc(C(=O)NCCc3ccccn3)c2C)n1	·	·	·	·	–
SMILES	GALK inhibitor	miR-21 reporter	TrxR1 substrate	TrxR1 inh	PINK1 modulator
Cc1ccnc2cc(Cl)cc(Cl)c12	·	·	–	–	·
Cc1ccnc2ccc3ccccc3c12	·	·	–	89µM	·
N#Cc1nc(COc2ccccc2Cl)oc1NCc1ccc(F)cc1	–	–	–	–	–
N#Cc1nc(COc2ccccc2Cl)oc1NCc1cccnc1	–	–	–	35µM	–
O=C(NCC1(N2CCCCC2)CCCCC1)c1ccc(-n2cc(NC(=O)c3cccnc3)cn2)cc1	·	·	·	·	–
CCC(=O)NC(=S)Nc1c(C)cc(Br)cc1C	–	–	–	28µM	–
Cc1ccc(CCNC(=O)c2ccc(CSc3nc4ccncc4n3Cc3ccc(F)cc3)cc2)cc1	·	–	–	–	–
O=S(=O)(NCc1ccccc1)c1ccc(S(=O)(=O)NCC2CCCO2)cc1 (stereo not drawn)	–	–	–	1.4µM	–
C=C(C)Cn1c(=O)c2c(nc3n2CCN3c2ccc(F)cc2)n(C)c1=O	·	–	–	–	–
NCCCCN	·	·	–	?	–
Cc1ccc(CNC(=O)c2cn(C3CCCC3)c(=O)c3c2c2ccccc2n3C)o1	–	–	·	·	·
Cn1c2ccccc2c2c(C(=O)NCc3ccco3)cn(C3CCCCC3)c(=O)c21	–	–	–	20µM	–
O=S(=O)(c1cccc(F)c1)N1CCC(Oc2ccc(-n3cnnn3)cc2)CC1	·	–	–	–	–
